The subject of the assay is B cells (CD20+) in human whole blood. As to the kind of experiment: anti-CD79b-mediated B-cell activation in human whole blood (CD69 on CD20+ B cells, flow cytometry). Type of assay: cell-based. The following applies: 10 μM compound, anti-CD79b stimulation, anti-CD79b alone 73.4%. In general terms: A flow cytometer gives signals particle by particle.

As for `CC(C)(C=C(C#N)C(=O)N1CCC[C@@H](n2nc(-c3ccc(Oc4ccccc4)cc3F)c3c(N)ncnc32)C1)N1CCN(C2COC2)CC1` [rilzabrutinib, (R)-2-[3-[4-amino-3-(2-fluoro-4-phenoxy-phenyl)pyrazolo[3,4-d]pyrimidin-1-yl]piperidine-1-carbonyl]-4-methyl-4-[4-(oxetan-3-yl)piperazin-1-yl]pent-2-enenitrile], the “activated B cells (CD69 positive)” value stood at 8.03%.

These data come from patent US20260232668A1 (Kadmon Corporation, LLC, priority 2023, published 2026).
